Values of other authors in patent US10952975B2, “Compositions and methods for treatment of cancer” (priority 2019, dated 2021).

By UniProt entry, the sequences of proteins in these tests, tags left out.
UniProt P31153, whole entry: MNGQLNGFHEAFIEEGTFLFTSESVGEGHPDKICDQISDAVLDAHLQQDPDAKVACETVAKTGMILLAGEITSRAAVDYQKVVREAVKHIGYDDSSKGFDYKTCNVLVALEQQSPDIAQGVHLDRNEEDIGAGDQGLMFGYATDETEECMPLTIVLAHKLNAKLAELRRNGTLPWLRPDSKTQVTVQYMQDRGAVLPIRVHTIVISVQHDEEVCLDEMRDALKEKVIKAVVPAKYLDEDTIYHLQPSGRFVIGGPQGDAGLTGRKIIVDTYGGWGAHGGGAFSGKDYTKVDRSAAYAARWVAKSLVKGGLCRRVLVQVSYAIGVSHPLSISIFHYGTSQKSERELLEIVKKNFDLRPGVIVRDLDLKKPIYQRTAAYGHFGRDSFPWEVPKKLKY

Assays:
MAT2A = MAT2A (Homo sapiens, UniProt P31153); settings: cell-free and cell-based
LS174T cells = settings: 36 h, 3 μM FIDAS-5
[1] = system: LS174T CRC (colorectal cancer); settings: 3 μM, up to 7 d in vitro
HT29 CRC tumor = settings: d 18 post xenograft; 20 mg/kg/day orally starting d 4

## CNc1ccc(/C=C/c2c(F)cccc2Cl)cc1
MAT2A
  potency relative to FIDAS-3 in inhibiting MAT2A-catalyzed SAM synthesis: > 2 fold
LS174T cells
  decrease of SAH level: 56%
  decrease of SAM level: 64%
[1]
  inhibition of proliferation: completely inhibit
HT29 CRC tumor
  suppression of HT29 CRC tumor expansion: 58%
